The target in test [1] is Rabbit IgG (rabbit) (UniProt P01870). As to the kind of experiment: QCM, protein A added to rabbit IgG held on MUA/scFv-RG3.
The target is the same in test [2]. Nature of the test: QCM, untreated S. aureus on MUA/scFv-RG3/IgG sensor (Bar B).
For test [3] the target is unchanged. As to the kind of experiment: QCM, acid treated S. aureus on MUA/scFv-RG3/IgG sensor (Bar A).
The target is the same in test [4]. As to the kind of experiment: QCM, MUA/scFv-RG3/IgG sensor, untreated against acid treated bacteria.
For test [5] the target is unchanged. As to the kind of experiment: QCM, acid treated S. aureus on directly immobilised, random orientated rabbit IgG surface (Bar D).

Protein sequences, listed by entry. Tags and fused reporters are not part of them.
UniProt P01870, whole entry: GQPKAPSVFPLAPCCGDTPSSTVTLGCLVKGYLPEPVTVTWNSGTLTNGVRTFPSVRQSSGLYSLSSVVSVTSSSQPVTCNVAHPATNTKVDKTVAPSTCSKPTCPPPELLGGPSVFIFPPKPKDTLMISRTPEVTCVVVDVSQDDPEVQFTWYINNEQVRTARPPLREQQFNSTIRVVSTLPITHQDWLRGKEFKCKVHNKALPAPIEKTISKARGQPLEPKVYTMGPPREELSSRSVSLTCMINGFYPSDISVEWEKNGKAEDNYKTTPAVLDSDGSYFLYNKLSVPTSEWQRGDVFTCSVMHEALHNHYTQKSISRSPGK

Values joined by “and” are separate entries in the source; they are usually repeats but may differ in a detail not shown here. Equal values may be shown once.

In the test with Rabbit IgG (rabbit) [1], “purified protein A (from UniProt P38507 37-477)” registered a fold increase of signal over randomly orientated rabbit IgG surface and protein A/IgG surface of 7 fold; a frequency change (signal response) of 47 Hz.

Consider “protein A on the cell surface of Staphylococcus aureus (Cowan's serotype 1, ATCC 12598) (from UniProt P38507 37-477)”, for which the frequency change was 44 Hz in the test with Rabbit IgG (rabbit) [2]; 230 Hz and 250 Hz with Rabbit IgG (rabbit) [3]; 39 Hz in the test with Rabbit IgG (rabbit) [5]. The substance further gave a fold signal reduction against acid treated Staphylococcus aureus with Rabbit IgG (rabbit) [4] of 6 times.

Source of the values: US20080171346A1.
